Amino acid sequences for entries named in this document (tags omitted).
UniProt Q13639, whole entry: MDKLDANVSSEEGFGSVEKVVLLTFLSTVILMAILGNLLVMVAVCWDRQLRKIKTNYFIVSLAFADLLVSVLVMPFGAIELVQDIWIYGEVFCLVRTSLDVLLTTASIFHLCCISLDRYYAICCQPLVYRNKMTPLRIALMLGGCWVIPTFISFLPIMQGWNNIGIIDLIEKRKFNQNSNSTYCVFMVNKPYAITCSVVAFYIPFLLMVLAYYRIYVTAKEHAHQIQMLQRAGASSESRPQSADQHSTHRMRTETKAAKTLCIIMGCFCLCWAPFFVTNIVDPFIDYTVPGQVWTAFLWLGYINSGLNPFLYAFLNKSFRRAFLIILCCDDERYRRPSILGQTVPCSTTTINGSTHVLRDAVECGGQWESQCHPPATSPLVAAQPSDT

In patent publication US7732464B2, “Heterocyclic substituted 4-(aminomethyl)-piperidine benzamides as 5HT4-antagonists” (Janssen Pharmaceutica, N.V., priority 2003, dated 2010):

Assays:
h5-HT4b = h5-HT4b (Homo sapiens, UniProt Q13639); assay: 5HT4 antagonism: [3H]GR113808 binding to membranes of h5-HT4b-HEK 293 clone 9 cells; conditions: displacement of [3H]GR113808 0.1 nM, h5-HT4b-HEK 293 membranes, 30 min at 25° C.
Protocol: h5-HT4b-HEK 293 clone 9 cells were cultured in 150 mm Petri dishes and washed twice with cold PBS. The cells were then scraped from the plates and suspended in 50 mM Tris-HCl buffer, pH 7.4 and harvested by centrifugation at 23,500 rpm for 10 minutes. The pellet was resuspended in 5 mM Tris-HCl, pH 7.4 and homogenized with an Ultra Turrax homogenizer. The membranes were collected by centrifugation at 30,000 rpm for 20 min, resuspended in 50 mM Tris-HCl pH 7.4 and stored at −80° C. For the experiment, assay mixtures (0.5 ml) contained 50 μl of the tritiated ligand (5-HT4 antagonist [^3H]GR113808 0.1 nM) and 0.4 ml membrane preparation (15 μg protein/ml). 50 μl of 10% DMSO was added for total binding. 50 μl of 1 μM of (+)-trans-(1-butyl-3-hydroxy-4-piperidinyl)methyl 8-amino-7-chloro-2,3-dihydro-1,4-benzodioxin-5-carboxylate (a proprietary 5HT4 agonist of Janssen Pharmaceutica) was added for determination of non-specific binding.
The [^3H]GR113808 assay buffer was 50 mM HEPES-NaOH, pH 7.4. The mixtures were incubated for 30 min at 25° C. The incubation was terminated by filtration over a Unifilter 96 GF/B presoaked in 0.1% polyethylenimine, followed by six washing steps with 50 mM HEPES-NaOH, pH 7.4.

[1] = Metabolic stability: incubation with liver microsomes and NADPH-generating system, LC-MS analysis; conditions: compound 5 μM; microsomes 1 mg/ml; NADPH-generating system; 60 minutes at 37 degrees Celsius
Protocol: Sub-cellular tissue preparations were made according to Gorrod et al. (Xenobiotica 5: 453-462, 1975) by centrifugal separation after mechanical homogenization of tissue. Liver tissue was rinsed in ice-cold 0.1 M Tris-HCl (pH 7.4) buffer to wash excess blood. Tissue was then blotted dry, weighed and chopped coarsely using surgical scissors. The tissue pieces were homogenized in 3 volumes of ice-cold 0.1 M phosphate buffer (pH 7.4).
Tissue homogenates were centrifuged at 9000×g for 20 minutes at 4° C. The resulting supernatant was stored at −80° C. and is designated ‘S9’.
The S9 fraction can be further centrifuged at 100.000×g for 60 minutes (4° C.). The resulting supernatant was carefully aspirated, aliquoted and designated ‘cytosol’. The pellet was re-suspended in 0.1 M phosphate buffer (pH 7.4) in a final volume of 1 ml per 0.5 g original tissue weight and designated ‘microsomes’.
All sub-cellular fractions were aliquoted, immediately frozen in liquid nitrogen and stored at −80° C. until use. […]
Metabolic stability was expressed as % metabolism of the compound after 60 minutes (equation given as Example) of incubation in the presence of active microsomes E(act))

Row | pIC50 (5HT4 antagonistic data) (h5-HT4b) | Structure (SMILES) | other results
1 |  | Cc1cc2c(c(C(=O)NC[C@@H]3CCN(CCCc4nnn[nH]4)C[C@H]3O)c1)OCCCO2 | pIC50 (5HT4 antagonistic data) (h5-HT4b; tested form: HCl): 7.77
2 |  | Cc1cc2c(c(C(=O)NC[C@@H]3CCN(CCCn4nn[nH]c4=O)C[C@H]3O)c1)OCCCO2 | pIC50 (5HT4 antagonistic data) (h5-HT4b; tested form: H2O): 7.82
3 | 8.48 | Cc1ccc(C(=O)NC[C@@H]2CCN(CCCN3CC(=O)NC3=O)C[C@H]2O)c2c1OCCCO2 | % metabolised compound after 60 minutes [1]: 17%
4 | 7.3 | CO[C@@H]1CN(CCCc2cc(O)no2)CC[C@H]1CNC(=O)c1cc(F)cc2c1OCCCO2 (relative stereo) | 
5 | 8.51 | COc1ccc(C(=O)NC[C@@H]2CCN(CCCN3CCOCC3)C[C@H]2O)c2c1OCCCO2 | % metabolised compound after 60 minutes [1]: 8%

Row | Structure (SMILES) | pIC50 (5HT4 antagonistic data) (h5-HT4b) | other results
6 | O=C(NC[C@@H]1CCN(CCCCn2ccc(O)n2)C[C@H]1O)c1ccc(F)c2c1OCCCO2 | 9.14 | 
7 | Cc1ccc(C(=O)NC[C@@H]2CCN(CCCCn3ccc(O)n3)C[C@H]2O)c2c1OCCCO2 | 8.91 | 
